Molecular target: Coagulation factor X (Homo sapiens, UniProt P00742)
Assay: Inhibitory concentration against human Coagulation factor X

Chains of the proteins cited; added tags and fusions are not shown. Residues count along the entry.
UniProt P00742, 41-179 limits assumed: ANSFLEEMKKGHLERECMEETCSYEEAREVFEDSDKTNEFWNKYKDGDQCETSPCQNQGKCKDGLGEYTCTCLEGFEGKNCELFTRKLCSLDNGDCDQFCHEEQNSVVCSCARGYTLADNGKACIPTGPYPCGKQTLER
UniProt P00742, 235-488 limits assumed: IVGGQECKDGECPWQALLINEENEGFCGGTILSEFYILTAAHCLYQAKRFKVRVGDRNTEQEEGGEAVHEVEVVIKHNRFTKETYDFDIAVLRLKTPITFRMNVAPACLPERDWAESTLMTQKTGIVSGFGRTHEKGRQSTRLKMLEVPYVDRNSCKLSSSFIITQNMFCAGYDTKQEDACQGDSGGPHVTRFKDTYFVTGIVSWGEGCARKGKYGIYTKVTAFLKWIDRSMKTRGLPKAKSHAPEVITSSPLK

CC(C)Nc1ccc(-c2cc(N)cc(N)c2)n(CC(=O)NCc2ccc(C(=N)N)cc2)c1=O
IC50: > 30 µM

From ChEMBL document CHEMBL1145137, “Design, synthesis, and crystal structure of selective 2-pyridone tissue factor VIIa inhibitors” (J Med Chem, 2003)
